Where “and” joins values, the source holds several entries; their conditions need not be identical. Identical values can stand only once.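 Each compound was tested at five concentrations against cells in 96-well plates for 48 hours. GI50 is the concentration that inhibits growth by half. TGI: total growth inhibition.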
How the values were obtained:
Assay in all cases: NCI tumour cell line growth inhibition, 48 h
LOX IMVI melanoma = test system: LOX IMVI melanoma
MDA-MB-435 = test system: MDA-MB-435
MOLT-4 leukemia = test system: MOLT-4 leukemia
SK-MEL-2 melanoma = test system: SK-MEL-2 melanoma
SN12C renal = test system: SN12C renal
NCI-H226 lung = test system: NCI-H226 lung
UO-31 renal = test system: UO-31 renal
OVCAR-4 ovarian = test system: OVCAR-4 ovarian
NCI-H23 lung = test system: NCI-H23 lung
UACC-257 melanoma = test system: UACC-257 melanoma
SK-MEL-28 melanoma = test system: SK-MEL-28 melanoma
MCF7 breast = test system: MCF7 breast
NCI-H522 lung = test system: NCI-H522 lung
MALME-3M melanoma = test system: MALME-3M melanoma
IGROV1 ovarian = test system: IGROV1 ovarian
HOP-62 NSCLC = test system: HOP-62 NSCLC
MDA-MB-231 breast = test system: MDA-MB-231 breast
NCI-H460 lung = test system: NCI-H460 lung
HOP-92 NSCLC = test system: HOP-92 NSCLC
K-562 leukemia = test system: K-562 leukemia
DU-145 prostate = test system: DU-145 prostate
U251 CNS = test system: U251 CNS
SR leukemia = test system: SR leukemia
RXF 393 renal = test system: RXF 393 renal
KM12 colon = test system: KM12 colon
HL-60(TB) leukemia = test system: HL-60(TB) leukemia
EKVX NSCLC = test system: EKVX NSCLC
SF-268 CNS = test system: SF-268 CNS
TK-10 renal = test system: TK-10 renal
CCRF-CEM leukemia = test system: CCRF-CEM leukemia
HT29 colon = test system: HT29 colon
SNB-75 CNS = test system: SNB-75 CNS
HCC-2998 colon = test system: HCC-2998 colon
SF-295 CNS = test system: SF-295 CNS
HS 578T breast = test system: HS 578T breast
COLO 205 colon = test system: COLO 205 colon
NCI-H322M lung = test system: NCI-H322M lung
OVCAR-5 ovarian = test system: OVCAR-5 ovarian
SNB-19 CNS = test system: SNB-19 CNS
MDA-N = test system: MDA-N
UACC-62 melanoma = test system: UACC-62 melanoma
A549 NSCLC = test system: A549 NSCLC
OVCAR-3 ovarian = test system: OVCAR-3 ovarian
A498 renal = test system: A498 renal
SK-MEL-5 melanoma = test system: SK-MEL-5 melanoma
RPMI-8226 leukemia = test system: RPMI-8226 leukemia
SF-539 CNS = test system: SF-539 CNS
SW-620 colon = test system: SW-620 colon
OVCAR-8 ovarian = test system: OVCAR-8 ovarian
HCT-15 colon = test system: HCT-15 colon
ACHN renal = test system: ACHN renal
PC-3 prostate = test system: PC-3 prostate
BT-549 breast = test system: BT-549 breast
NCI/ADR-RES ovarian = test system: NCI/ADR-RES ovarian
M14 melanoma = test system: M14 melanoma
T-47D breast = test system: T-47D breast
HCT-116 colon = test system: HCT-116 colon
786-0 renal = test system: 786-0 renal
CAKI-1 renal = test system: CAKI-1 renal

CC(=O)OC[C@]12C[C@H](OC(=O)CC(C)C)C(C)=C[C@H]1OC1[C@H](O)[C@@H](OC(C)=O)[C@@]2(C)[C@@]12CO2
GI50 (LOX IMVI melanoma): 3.41 nM | TGI (LOX IMVI melanoma): 9.43 nM | GI50 (MDA-MB-435): 5.57 nM | TGI (MDA-MB-435): 27.5 nM | TGI (MOLT-4 leukemia): 129 nM | GI50 (SK-MEL-2 melanoma): 12.3 nM | TGI (SK-MEL-2 melanoma): 51.7 nM | GI50 (SN12C renal): 24.5 nM | TGI (SN12C renal): 159 nM | GI50 (NCI-H226 lung): 6.71 nM | TGI (NCI-H226 lung): 32.4 nM | GI50 (UO-31 renal): 19.5 nM and 13.1 nM | TGI (UO-31 renal): 158 nM and 1190 nM | GI50 (OVCAR-4 ovarian): 3.54 nM | TGI (OVCAR-4 ovarian): 15.7 nM | GI50 (NCI-H23 lung): 3.08 nM | TGI (NCI-H23 lung): 18.3 nM | GI50 (UACC-257 melanoma): 11.3 nM | TGI (UACC-257 melanoma): 41.3 nM | GI50 (SK-MEL-28 melanoma): 4.99 nM | TGI (SK-MEL-28 melanoma): 43.5 nM | GI50 (MCF7 breast): 3.22 nM | TGI (MCF7 breast): > 100000 nM | GI50 (NCI-H522 lung): 3.25 nM | TGI (NCI-H522 lung): 15 nM | GI50 (MALME-3M melanoma): 4.09 nM | TGI (MALME-3M melanoma): 36.1 nM | GI50 (IGROV1 ovarian): 5.22 nM | GI50 (HOP-62 NSCLC): 9.99 nM | TGI (HOP-62 NSCLC): 129 nM and 28.3 nM | GI50 (MDA-MB-231 breast): 27 nM | GI50 (NCI-H460 lung): 3.27 nM | TGI (NCI-H460 lung): 11.5 nM | GI50 (HOP-92 NSCLC): 18.2 nM | TGI (HOP-92 NSCLC): 55.6 nM | GI50 (K-562 leukemia): 3.49 nM | TGI (K-562 leukemia): 1280 nM | GI50 (DU-145 prostate): 33.1 nM | GI50 (U251 CNS): 3.13 nM | GI50 (SR leukemia): 3.99 nM | TGI (SR leukemia): > 100000 nM | GI50 (RXF 393 renal): 14 nM | TGI (RXF 393 renal): 51.3 nM | GI50 (KM12 colon): 9.83 nM | GI50 (HL-60(TB) leukemia): 3.84 nM | TGI (HL-60(TB) leukemia): > 100000 nM | GI50 (EKVX NSCLC): 15.2 nM | TGI (EKVX NSCLC): 44.2 nM and 275 nM | GI50 (SF-268 CNS): 15.1 nM | TGI (SF-268 CNS): 68.3 nM | GI50 (TK-10 renal): 14.9 nM | TGI (TK-10 renal): 66.9 nM | GI50 (CCRF-CEM leukemia): 3.3 nM | TGI (CCRF-CEM leukemia): 71.7 nM | GI50 (HT29 colon): 3.56 nM | TGI (HT29 colon): 15 nM | GI50 (SNB-75 CNS): 35.4 nM | GI50 (HCC-2998 colon): 2.13 nM | TGI (HCC-2998 colon): 5.45 nM | GI50 (SF-295 CNS): 14.6 nM | TGI (SF-295 CNS): 46.3 nM | GI50 (HS 578T breast): 15.1 nM | GI50 (COLO 205 colon): 7.2 nM | GI50 (NCI-H322M lung): 28.9 nM | TGI (NCI-H322M lung): 167 nM and 24.2 nM | GI50 (OVCAR-5 ovarian): 41.8 nM | TGI (OVCAR-5 ovarian): 527 nM | GI50 (SNB-19 CNS): 4.11 nM | TGI (SNB-19 CNS): 104 nM | GI50 (MDA-N): 9.52 nM | TGI (MDA-N): 40.8 nM | GI50 (UACC-62 melanoma): 10.8 nM | TGI (UACC-62 melanoma): 42.1 nM | GI50 (A549 NSCLC): 4.72 nM | TGI (A549 NSCLC): 30.7 nM | GI50 (OVCAR-3 ovarian): 4.91 nM | TGI (OVCAR-3 ovarian): 147 nM | GI50 (A498 renal): 5.29 nM | TGI (A498 renal): 28.6 nM | GI50 (SK-MEL-5 melanoma): 2.74 nM | TGI (SK-MEL-5 melanoma): 7.17 nM | GI50 (RPMI-8226 leukemia): 4.68 nM | TGI (RPMI-8226 leukemia): > 100000 nM | GI50 (SF-539 CNS): 3.31 nM | TGI (SF-539 CNS): 8.7 nM | TGI (SW-620 colon): 13200 nM | GI50 (OVCAR-8 ovarian): 12.6 nM | GI50 (HCT-15 colon): 3 nM | TGI (HCT-15 colon): 9.12 nM | GI50 (ACHN renal): 4.45 nM | TGI (ACHN renal): 23 nM and 12.7 nM | GI50 (PC-3 prostate): 14.6 nM | TGI (PC-3 prostate): 59.6 nM | GI50 (BT-549 breast): 20.8 nM | TGI (BT-549 breast): 61.2 nM | GI50 (NCI/ADR-RES ovarian): 26.5 nM | TGI (NCI/ADR-RES ovarian): 199 nM and 784 nM | GI50 (M14 melanoma): 4.66 nM | TGI (M14 melanoma): 17.8 nM | GI50 (T-47D breast): 6.11 nM | TGI (T-47D breast): 36.7 nM | GI50 (HCT-116 colon): 3.21 nM | TGI (HCT-116 colon): 12.9 nM | GI50 (786-0 renal): 19.1 nM | TGI (786-0 renal): 56.8 nM and 15.8 nM | GI50 (CAKI-1 renal): 26.9 nM | TGI (CAKI-1 renal): 98.4 nM
